Columns and labels:
[1] = test system: BPH induced mouse model (treated with testosterone and estradiol); experiment: Body, prostate and seminal vesicle weight in BPH induced mouse model (testosterone and estradiol); assay type: in vivo, C57BL/6 mice
Method: (§1) The experiment used 6-8 weeks old male C57BL/6 (n=10/group) mice and the mice were raised in the SPF (specific pathogen free) area of experimental animal laboratory in Medical College of Seoul University. Testosterone enanthate (TE, purchased from EVER Pharma Hena GmbH, Germany) for injection 50 mg and estradiol valerate (purchased from EVER Pharma Hena GmbH, Germany) 0.5 mg are respectively mixed into 70 μl volume of micro-osmotic pump (Alzet pump, purchased from DURECT Corporation, USA), and the pump was transplanted in the back of mouse under anesthetic. The pump was designed to release the hormone in the concentration of 0.11 μl per an hour in 28 days (2 weeks) into the mouse by using osmosis phenomenon.
As test materials, testosterone and finasteride were used. For prepared animal models, per one subject (25 g mouse model) 250 μg of PEP1 according to example 1 and 2500 μg of finasteride (in DMSO or cyclodextrin, purchased from Sigma Aldrich, USA) were administered subcutaneously (injection) respectively every day. After 2 weeks from injecting test materials (4 weeks after transplanting the pump to animal model), the blood was collected from supraorbital vein and centrifuged in 14000 rpm, 4° C., 30 min to separate blood serum, and the prostate was extracted and froze in liquid nitrogen at −70° C. or fixed in a fixing fluid. The test groups for experiment are described in Table 5 below.
BPH can be detected by the changes of the weights of prostate and seminal vesicle. Based on this, for detecting the effect of PEP1 to the weights of prostate and seminal vesicle which directly show the BPH related symptoms, body weight, prostate weight and seminal vesicles weight were measured in BPH induced animal model. The results of the measurement are shown in Table 5 by group as a graph (see FIGS. 13, 14 and 15).

Amino acid sequences for entries named in this document (tags omitted). A change or cut given only in a name is not applied to a line headed by its entry.
UniProt P10275: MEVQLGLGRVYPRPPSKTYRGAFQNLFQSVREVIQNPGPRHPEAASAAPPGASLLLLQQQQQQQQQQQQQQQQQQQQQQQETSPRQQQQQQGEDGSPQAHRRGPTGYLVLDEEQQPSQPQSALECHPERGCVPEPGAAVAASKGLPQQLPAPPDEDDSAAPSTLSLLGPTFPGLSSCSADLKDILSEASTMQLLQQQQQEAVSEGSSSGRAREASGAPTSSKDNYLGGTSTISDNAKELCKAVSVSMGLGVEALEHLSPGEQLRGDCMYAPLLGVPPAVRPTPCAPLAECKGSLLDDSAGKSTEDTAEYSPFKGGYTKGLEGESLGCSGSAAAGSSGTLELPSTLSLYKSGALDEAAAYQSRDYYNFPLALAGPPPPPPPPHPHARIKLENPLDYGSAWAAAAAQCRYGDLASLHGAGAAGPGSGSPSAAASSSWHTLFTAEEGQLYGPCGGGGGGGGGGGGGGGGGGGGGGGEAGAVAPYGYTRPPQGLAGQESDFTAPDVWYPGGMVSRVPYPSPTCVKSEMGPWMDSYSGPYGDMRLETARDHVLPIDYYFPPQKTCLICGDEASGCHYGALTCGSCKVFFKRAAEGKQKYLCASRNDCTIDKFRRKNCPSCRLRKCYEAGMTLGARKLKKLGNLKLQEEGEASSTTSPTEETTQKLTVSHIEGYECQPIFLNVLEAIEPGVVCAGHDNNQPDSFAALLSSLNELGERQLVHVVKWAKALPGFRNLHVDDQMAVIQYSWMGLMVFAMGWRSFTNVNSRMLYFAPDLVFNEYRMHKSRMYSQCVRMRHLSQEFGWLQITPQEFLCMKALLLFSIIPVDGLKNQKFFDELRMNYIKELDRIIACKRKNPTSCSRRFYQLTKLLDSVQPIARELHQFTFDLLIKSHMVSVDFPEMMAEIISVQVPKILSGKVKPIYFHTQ

androgen receptor [2] = biological target: T1, androgen receptor (Homo sapiens, UniProt P10275); experiment: Binding ability to androgen receptor, PEP1-FITC competitive test by flow-cytometry in WPMY-1
T1 construct: As the cell lines, WPMY-1 and RWPE-1 from animal models were used; endogenous in cells; host or cells: WPMY-1; RWPE-1
Method: (§2) DHT created by 5α-reductase promotes proliferation of prostate cell by binding to androgen receptor and causes BPH. Based on this, the experiment related to proliferation of prostate cell which administrates PEP1 according to example 1 to the body has been done. As the cell lines, WPMY-1 and RWPE-1 from animal models were used. WPMY-1 and RWPE-1 were separated into the group of anti-androgen receptor and the group of isotype control, incubated with each anti-bodies to do competitive test by putting PEP1-FITC (fluorescein isothiocyanate) in it, and measured by value of fluorescence for the result. The fluorescence value was measured by using flow-cytometry method.
(§3) For each of WPMY-1 and RWPE-1, the fluorescence values were measured in which a case reacted to the anti-androgen receptor isotype control antibody first (competed with antibody, peak of the farthest to the right), other case reacted to the anti-androgen receptor antibody (competed with antibody, peak of the middle), and another case not reacted to two antibodies neither bound to FITC (peak of the farthest to the left) (see FIG. 7 and FIG. 8). […] Therefore, for considering that PEP1 inhibits BPH induced by DHT which binds to anti-androgen receptor, PEP1 can affect BPH by binding to an anti-androgen receptor directly.

Ki67 (MK167) = experiment: Ki67 expression in prostate tissue of BPH induced mouse model (immunostain); assay type: in vivo, C57BL/6 mice; details: PEP1 250 μg per 25 g mouse s.c. every day, 2 weeks
Method: as §1
As test materials, testosterone and finasteride were used. […]
Inducing BPH increases PCNA (proliferating cell nuclear antigen, compulsory protein for replication) and Ki67 (MK167, compulsory protein for proliferation of cell) in prostate tissues. […] PCNA was measured by using 2D-gel electrophoresis with protein of the extracted from prostate tissue cells, and Ki67 was measured by immunostain method to detect expression level in tissue. […]

[3] = test system: prostate tissue of BPH induced animal model; experiment: Histological analysis of prostate tissue of BPH induced mouse model (H&E, Masson's trichrome); assay type: in vivo, C57BL/6 mice; details: PEP1 250 μg per 25 g mouse s.c. every day, 2 weeks
Method: The experiment used 6-8 weeks old male C57BL/6 (n=10/group) mice and the mice were raised in the SPF (specific pathogen free) area of experimental animal laboratory in Medical College of Seoul University. Testosterone enanthate (TE, purchased from EVER Pharma Hena GmbH, Germany) for injection 50 mg and estradiol valerate (purchased from EVER Pharma Hena GmbH, Germany) 0.5 mg are respectively mixed into 70 μl volume of micro-osmotic pump (Alzet pump, purchased from DURECT Corporation, USA), and the pump was transplanted in the back of mouse under anesthetic. The pump was designed to release the hormone in the concentration of 0.11 μl per an hour in 28 days (2 weeks) into the mouse by using osmosis phenomenon. As test materials, testosterone and finasteride were used. For prepared animal models, per one subject (25 g mouse model) 250 μg of PEP1 according to example 1 and 2500 μg of finasteride (in DMSO or cyclodextrin, purchased from Sigma Aldrich, USA) were administered subcutaneously (injection) respectively every day. After 2 weeks from injecting test materials (4 weeks after transplanting the pump to animal model), the blood was collected from supraorbital vein and centrifuged in 14000 rpm, 4° C., 30 min to separate blood serum, and the prostate was extracted and froze in liquid nitrogen at −70° C. or fixed in a fixing fluid. […]

androgen receptor [4] = biological target: T1, androgen receptor; experiment: Binding ability to androgen receptor, PEP1-FITC competitive test by flow-cytometry in RWPE-1
Method: as §2, §3

[5] = PEP1 250 μg per 25 g mouse s.c. every day, 2 weeks

## CC[C@H](C)[C@H](NC(=O)[C@H](Cc1ccccc1)NC(=O)[C@H](CCCNC(=N)N)NC(=O)[C@H](CC(C)C)NC(=O)[C@H](CCCNC(=N)N)NC(=O)[C@H](CO)NC(=O)[C@@H](NC(=O)[C@H](CC(C)C)NC(=O)[C@H](CC(C)C)NC(=O)[C@H](C)NC(=O)[C@@H]1CCCN1C(=O)[C@H](CCCNC(=N)N)NC(=O)[C@H](C)NC(=O)[C@@H](N)CCC(=O)O)[C@@H](C)O)C(=O)N1CCC[C@H]1C(=O)N[C@@H](CCCCN)C(=O)O [PEP1, EARPALLTSRLRFIPK]
[1]; [5]
  Prostate weight compared with hormone treated group: significantly decreased
  Seminal vesicle weight compared with hormone treated group: less than that of the hormone treated group
[1]; PEP1 250 μg vs finasteride 2500 μg per 25 g mouse s.c. every day
  Decrease of prostate weight compared with finasteride group: comparable to the result of the group of administering finasteride
Androgen receptor [2]; WPMY-1, competing with anti-androgen receptor antibody, fluorescence decreased
  Binding to androgen receptor (fluorescence of PEP1-FITC conjugate): bound weakly to anti-androgen receptor
Androgen receptor [2]; WPMY-1, competing with anti-androgen receptor isotype control antibody, fluorescence increased
  Binding to androgen receptor (fluorescence of PEP1-FITC conjugate): bound to anti-androgen receptor
Ki67 (MK167)
  Expression of Ki67 in prostate tissue: decreased
[3]
  Arrangement of the epithelial layer of prostate: arranged in regular order like that of control group
  Thickness of the epithelium of prostate: less thick than that of the BPH induced group
Androgen receptor [4]; RWPE-1, competing with anti-androgen receptor antibody, fluorescence decreased
  Binding to androgen receptor (fluorescence of PEP1-FITC conjugate): bound weakly to anti-androgen receptor
Androgen receptor [4]; RWPE-1, competing with anti-androgen receptor isotype control antibody, fluorescence increased
  Binding to androgen receptor (fluorescence of PEP1-FITC conjugate): bound to anti-androgen receptor

Source: patent US9572858B2, “Composition for treating and preventing benign prostatic hyperplasia” (GemVax & KAEL Co., Ltd., priority 2013, dated 2017)
